Screening results deposited in PubChem BioAssay by several laboratories.
Sampled rows, rich in hits. Any-hit rate of the full collection: about 2.1%.
SMARCA2 activ: activators of SMARCA2 function. MG213 cells, MMTV-luciferase reporter, dexamethasone, overnight. activation, % at 9.1 µM. 370,000 tested, 1% active. AID 652017; in the data active means activation above about 7.8%;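 further: 0% = vehicle wells and 100% = reference activator wells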
UUG fidelity: yeast start codon fidelity modulation | S. cerevisiae UUG-firefly luciferase reporter, luminescence/redox ratio | activity score, % at 18.7 µM | hit rate 0.13% among 350,000 | AID 602363;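 active means replicate mean at a twofold rise or more, about +100% in these data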;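 further: firefly luciferase made from a UUG start codon reports start codon fidelity; reporter light over untreated wells divided by growth signal over untreated wells; some hits fall short of that in this replicate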
INS-1E GSIS act: primary screen for activators of insulin secretion dependent on glucose, INS-1E cells, GLuc reporter luminescence. INS-1E GLuc reporter insulin secretion, 2-3 h. activation, % at 16.6 µM. 370,000 tested, 0.61% active;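 active means lowest replicate activation of at least 40%, so every replicate reaches that level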;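 further: 0% = median of neutral control wells and 100% = median of IBMX positive control wells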
PDI turbidity: inhibitors of human protein disulfide isomerase | PDI insulin aggregation turbidity, A650, 90 min | P07237 | AID 588391 | inhibition, % at 10 µM | 350,000 tested, 0.052% active;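 active means mean inhibition across replicates of 30% or more, whatever share of single replicates reach that level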
NR1D1 modulator: modulators of human Rev-erb alpha DNA binding; Rev-erbα–FITC-DNA binding, fluorescence polarization, 90 min; activity, % at 10 µM; 370,000 tested, 0.79% active; AID 1259318;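 active means activity above about 14%, limit read from the data; passing the limit was not always enough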;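 further: 0% = DMSO wells with 35 nM protein and 100% = DMSO wells with 750 nM protein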
ERp5 inh: ERp5 (human) disulfide isomerase inhibition | Q15084 | ERp5 insulin aggregation, absorbance 650 nm, 90 min | inhibition, % at 9.99 µM | 350,000 tested, 0.05% active | AID 651711;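 active means mean replicate inhibition above about 25%, with every replicate also reaching it, limit read from the data, passing the limit was not always enough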
SMARCA2 act conf: confirmation of SMARCA2 (BRM) function activators. shares compounds with SMARCA2 activ. MG213 cells, MMTV-luciferase with dexamethasone, luminescence, overnight; MG213 cells expressing E1A, Rb sequestered; DMSO wells 0%, reference activator 100%. activation, % at 9.1 µM. 3,500 tested, 30% active. AID 652260;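 active means activation above its plate's cutoff, the mean activation of tested wells plus 3 SD, cut at about 7.9% in these data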
GAL4-VP16 Luc: activates GAL4-VP16 luciferase, flagging SMARCA2 activator hits; shares compounds with SMARCA2 activ; HEK293 GAL4-VP16 pG5luc reporter, luciferase luminescence; scaled: DMSO wells 0%, SAHA wells 100%; activation, % at 9.1 µM; 3,500 tested, 41% active; AID 686939;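 active means activation above the solvent-only control well mean plus 3 SD, averaged across control plates, cut at about 5.2% in these data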
* hit, by the source's call; . = no result.

cpd	molecule	SMARCA2 activ	ERp5 inh	SMARCA2 act conf	INS-1E GSIS act	GAL4-VP16 Luc	NR1D1 modulator	UUG fidelity	PDI turbidity
1	CC(=O)N1c2ccc(S(=O)(=O)N3CCC(C(=O)NCc4ccc(C)cc4)CC3)cc2CC1C (stereo not drawn)	11.4*	0.4	-2.1	-31.6	0.8	1.1	-5.7	15.8
2	CCC1([N+](=O)[O-])COC(C=Cc2ccccc2)OC1 (stereo not drawn)	9.7*	-8.5	5.4	0.2	3.5	-6.9	-15.5	9.3
3	CC1([N+](=O)[O-])COC(c2cccc3ccccc23)OC1 (stereo not drawn)	1.5	-1.1	.	-7.4	.	4.1	-13.4	3.7
4	COc1ccc(-c2cnc3c(NC=O)cc(-c4ccc(F)cc4)cn23)cc1OC	15.0*	0.7	13.8*	.	6.3*	3.4	1.4	-12.7
5	COc1ccc(-c2cc(NC=O)c3ncc(-c4cc(OC)c(OC)c(OC)c4)n3c2)cc1	1.4	-1.2	.	-4.7	.	-4.5	-5.4	2.0
6	O=CNc1cc(-c2cccc(F)c2)cn2c(-c3ccc(F)c(Cl)c3)cnc12	3.0	4.6	.	-3.9	.	-0.3	-21.7	6.2
7	COc1ccc(-c2cnc3c(NC=O)cc(-c4ccoc4)cn23)cc1OC	4.7	-15.3	.	4.2	.	3.9	-26.3	-1.2
8	CS(=O)(=O)Nc1cccc(-c2cc(NC=O)c3ncc(-c4ccc(F)c(Cl)c4)n3c2)c1	9.1*	-2.6	5.8	2.4	1.6	-0.6	-13.8	-1.3
9	COc1ccc(-c2cnc3c(NC=O)cc(-c4cc(OC)c(OC)c(OC)c4)cn23)cc1OC	15.3*	-1.4	23.9*	10.4	9.4*	-5.4	-11.4	1.5
10	CC(=O)c1cccc(-c2cnc3c(NC=O)cc(-c4ccc(F)cc4)cn23)c1	4.9	6.6	.	-7.7	.	-1.5	14.9	-2.6
11	COc1ccc(-c2cnc3c(NC=O)cc(-c4ccccc4)cn23)cc1OC	13.7*	0.4	10.1*	22.5	6.1*	-0.8	-5.7	-12.7
12	CO[C@H]1CC[C@@H]2CCN(C)C(=O)[C@H](C)[C@@H](OC)CN(C)C(=O)c3cccc(C#N)c3OC[C@@H]1O2	.	1.9	.	-6.8	.	.	.	.
13	CCC(=O)Nc1ccc2c(c1)C(=O)N(C)[C@@H]1CC[C@H](CC(=O)NC3CCCC3)O[C@@H]1CO2	.	-2.5	.	-0.8	.	.	-13.8	.
14	COc1ccc(-c2cc(NC=O)c3ncc(-c4ccc(OC)c(OC)c4)n3c2)c(OC)c1	11.3*	-3.8	17.4*	37.2	11.4*	0.8	-4.5	-1.4
15	COc1cccc(-c2cnc3c(NC=O)cc(-c4cc(OC)c(OC)c(OC)c4)cn23)c1	-1.5	12.6	.	4.0	.	10.9	-9.6	-9.9
16	COc1cccc(-c2cc(NC=O)c3ncc(-c4ccc(OC)c(OC)c4)n3c2)c1	12.0*	0.8	10.8*	-19.4	4.8	5.8	-15.2	5.2
17	COc1ccc(-c2cnc3c(NC=O)cc(-c4cccc(NS(C)(=O)=O)c4)cn23)cc1OC	35.6*	0.0	35.5*	-15.1	7.8*	2.8	-15.8	-16.3
18	CC(=O)c1ccc(-c2cnc3c(NC=O)cc(-c4ccc(N5CCN(C)CC5)cc4)cn23)cc1	11.8*	2.4	16.0*	.	4.1	-7.3	-15.6	-1.4
19	C[C@@H]1CN([C@H](C)CO)C(=O)c2cc(-c3ccncc3)cnc2O[C@H]1CN(C)C(=O)C1CCCCC1	.	-4.2	.	16.2	.	.	-12.1	.
20	CCCN1[C@@H]2c3cccc(=O)n3C[C@H]1[C@H](CO)[C@H]2C(=O)Nc1ccccc1	.	-0.3	.	10.6	.	.	.	.
21	COc1cc(-c2cnc3c(NC=O)cc(-c4ccc(S(C)(=O)=O)cc4)cn23)cc(OC)c1OC	-3.7	4.3	.	10.7	.	1.2	-31.5	-6.7
22	COc1ccc(-c2cnc3c(NC=O)cc(-c4ccc(S(C)(=O)=O)cc4)cn23)cc1OC	10.9*	-2.1	11.1*	.	4.5	5.3	-2.1	13.3
23	NNC(=O)c1ccc(Cn2cc(Br)cn2)o1	8.1*	2.5	-0.8	-5.0	0.9	-4.4	.	-5.6
24	CN(C)Cc1cn(CC[C@@H]2CC[C@H](NC(=O)Nc3ccc4c(c3)OCO4)[C@@H](CO)O2)nn1	.	0.3	.	0.2	.	.	-12.4	.
25	COc1ccccc1C=NNc1ccc([N+](=O)[O-])cn1	0.7	0.9	.	17.6	.	-4.4	-8.2	12.9
26	COc1cccc(C=NNc2ccc([N+](=O)[O-])cn2)c1OC	8.3*	14.0	7.2	.	3.1	-3.3	-14.2	-3.6
27	CC(=O)c1ccc(NCCCN2CCC(C(O)(c3ccccc3)c3ccccc3)CC2)cc1	9.6*	.	1.2	.	0.8	3.9	.	.
28	OC(c1ccccc1)(c1ccccc1)C1CCN(CCCNc2cccc(OC(F)(F)F)c2)CC1	-9.3	.	.	.	.	-1.3	.	.
29	CN1CCc2c(sc3c2C(=O)NC(c2cccc(OC(=O)c4cccs4)c2)N3)C1 (stereo not drawn)	14.0*	-3.3	1.5	-2.5	11.5*	-0.4	-17.3	-1.7
30	Cc1noc(C)c1NC(=O)Nc1ccc2c(c1)C(=O)N(C)[C@H]1CC[C@@H](CC(=O)N(C)C)O[C@@H]1CO2	.	3.4	.	0.7	.	.	0.9	.

Overlap with the part before: four compounds, followed by the next part.
cpd	molecule	SMARCA2 activ	ERp5 inh	SMARCA2 act conf	INS-1E GSIS act	GAL4-VP16 Luc	NR1D1 modulator	UUG fidelity	PDI turbidity
27	CC(=O)c1ccc(NCCCN2CCC(C(O)(c3ccccc3)c3ccccc3)CC2)cc1	9.6*	.	1.2	.	0.8	3.9	.	.
28	OC(c1ccccc1)(c1ccccc1)C1CCN(CCCNc2cccc(OC(F)(F)F)c2)CC1	-9.3	.	.	.	.	-1.3	.	.
29	CN1CCc2c(sc3c2C(=O)NC(c2cccc(OC(=O)c4cccs4)c2)N3)C1 (stereo not drawn)	14.0*	-3.3	1.5	-2.5	11.5*	-0.4	-17.3	-1.7
30	Cc1noc(C)c1NC(=O)Nc1ccc2c(c1)C(=O)N(C)[C@H]1CC[C@@H](CC(=O)N(C)C)O[C@@H]1CO2	.	3.4	.	0.7	.	.	0.9	.
31	Nc1c(Br)cc2oc(-c3ccccc3)nc2c1Br	9.5*	.	12.3*	58.2	7.2*	1.1	-10.9	-8.7
32	CCN1CCN(c2ccc(S(=O)(=O)N3CCCCC3)cc2NC(=O)/C=C/c2ccc([N+](=O)[O-])cc2)CC1	14.8*	2.9	23.1*	-24.1	0.3	1.4	-7.3	-5.6
33	CCN1CCN(c2ccc(S(=O)(=O)N3CCOCC3)cc2NC(=O)/C=C/c2ccc(C)cc2)CC1	1.4	6.7	.	16.8	.	8.3	.	11.3
34	O=C(/C=C/c1ccc(Cl)cc1)Nc1cc(S(=O)(=O)N2CCOCC2)ccc1N1CCOCC1	8.2*	0.4	2.0	-6.0	-0.1	-2.1	-12.1	-3.1
35	CCN1CCN(c2ccc(S(=O)(=O)N3CCCCC3)cc2NC(=O)/C=C/c2ccc(F)cc2)CC1	6.2	2.3	.	-20.3	.	-1.2	12.4	-1.6
36	C[C@@H]1CN([C@H](C)CO)C(=O)c2cc(C3=CCCC3)cnc2O[C@@H]1CN(C)C(=O)c1cccnc1	.	-2.3	.	-7.8	.	.	-10.7	.
37	COc1ccc(S(=O)(=O)N2CCOCC2)cc1NC(=O)CCNC(=O)c1ccc(Cl)cc1	8.1*	5.4	-1.9	-7.5	-0.8	1.9	-5.2	2.2
38	COc1ccc(S(=O)(=O)N2CCOCC2)cc1NC(=O)CCNC(=O)c1ccc(Br)cc1	-0.8	0.6	.	-2.7	.	10.2	5.6	-1.5
